The text below walks through data of patent US10844023B2 (Washington University, priority 2017, dated 2020).

One assay relates to Mfn2 null MEFs. The assay is described as follows: Mitochondrial elongation (aspect ratio) fusogenicity assay. Also noted: % long compare to B: dose or concentration left out as unconfirmed. It is filed as cell-based, mouse.
For assay [1], the system named is Mfn1/Mfn2 double null MEFs. The assay is described as follows: Mitochondrial elongation in Mfn1/Mfn2 double null MEFs. The class given is cell-based, mouse.

Structures are written as SMILES.

Regarding `CC(Sc1nnc(C2CC2)n1-c1ccccc1)C(=O)Nc1sc2c(c1C(N)=O)CCC2` (stereo not drawn) [B01, 2-{2-[(5-cyclopropyl-4-phenyl-4H-1,2,4-triazol-3-yl)sulfanyl]propana-mido}-4H,5H,6H-cyclopenta[b]thiophene-3-carboxamide], in the assay on Mfn2 null MEFs (mitochondrial elongation relative to Cpd B (B01 = 100), Mfn2 null MEFs, compound overnight as printed (FIG. 48)), the “% long compare to B” value is 100%. `CC(Sc1nnc(C2CC2)n1-c1ccccc1)C(=O)Nc1sc2c(c1C(N)=O)CCC2` (stereo not drawn) [B1, 2-{2-[(5-cyclopropyl-4-phenyl-4H-1,2,4-triazol-3-yl)sulfanyl]propanamido}-4H,5H,6H-cyclopenta[b]thiophene-3-carboxamide]: in the assay on Mfn2 null MEFs (rank order of aspect ratio among 44 soluble library compounds), the “Fusogenicity Rank” value was 2. With `CC(Sc1nnc(C2CC2)n1-c1ccccc1)C(=O)Nc1sc2c(c1C(N)=O)CCC2` (stereo not drawn) [Cpd B, 2-{2-[(5-cyclopropyl-4-phenyl-4H-1,2,4-triazol-3-yl)sulfanyl]-propanamido}-4H, 5H,6H-cyclopenta[b]-thiophene-3-carboxamide], the “Mitochondrial elongation in absence of both mitofusins” value in assay [1] is “did not occur in the absence of both of their mitofusin targets”.
